In patent US8388931B2, “99m Tc-labeled triphenylphosphonium derivative contrasting agents and molecular probes for early detection and imaging of breast tumors” (priority 2008, dated 2013):
“Also recorded” adds a separate entry of the source.

How the values were obtained:
[1] = urine sample 30 min after intravenous injection; radioHPLC
Procedure: Rats (n=3) were sacrificed at 1, 3, 5, 10, 30 and 60 min after injection and the distribution of radioactivity in different tissues was determined by gamma well counting with an energy window of 140±15 keV. The biodistribution data is expressed in terms of percentage injected dosage per gram (% ID/g) with mean±standard deviation. Urine samples were collected from the bladder at 30 min after injection, and were analyzed by radioHPLC to determine the presence of metabolic derivatives of the radiotracer. […] Specifically, anterior planar whole-body dynamic images were acquired on an XRT gamma camera (General Electric) using a high-resolution medium energy parallel-hole collimator at one frame per minute for 60 min, with 512×512 matrix, and an energy window of 140±15 keV.

[2] = Comparative study: myocardial and hepatic uptake of 99mTc-MIBI versus 99mTc-Mito10-MAG3; format: in vivo, rats
Procedure: ^99mTc-MIBI of clinical formulation was purchased from Bristol Myers Squibb. At 48 hours after the breast tumors were first identified using ^99mTc-Mito10-MAG3, the same rats were injected with ^99mTc-MIBI (1 mCi per rat) via the tail vein. At this time, the radioactivity from the ^99mTc-Mito10-MAG3 injection already had cleared to background from the animals due to physical decay and excretion. Dynamic images were acquired in identical fashion following 99mTc-MIBI injection.
In a comparative study, the myocardial uptake of ^99mTc-MIBI peaked at 2.70±0.4% ID/g within minutes after injection, and remained above 2.41±0.3% ID/g for at least 90 min. Comparatively, the myocardial uptake level of ^99mTc-Mito10-MAG 3 is 10, 40, and 120 fold lower than the uptake level of ^99mTc-MIBI at 3, 10 and 30 min after injection. The hepatic uptake of ^99mTc-MIBI was at 0.37±0.14% ID/g at 30 min after injection.

[3] = test system: DMBA-induced breast carcinoma; experiment: In vivo gamma camera imaging of DMBA-induced breast carcinoma in rats; parameters: species or system rats (female Sprague Dawley)
Procedure: The animal protocol was approved by institutional IACUC review and followed NIH guidelines. The rat model of DMBA-induced breast carcinoma was used.
As an initial feasibility study, rats were induced with 65 mg/kg DMBA dissolved in sesame oil via a single oral gavage to the stomach. Eleven weeks later, three rats with established breast carcinoma (0.5 to 1.9 cm in diameter) were imaged after ^99mTc-Mito10-MAG3 injection (10 μg, 1 mCi) using a constant rate infusion pump for a total injection volume of 150 μl over a period of 35 min. Static images were acquired on a GE XRT gamma camera using a high-resolution parallel-hole collimator, 512×512 matrix size, 22.5×22.5 cm field of view, 140±15 keV energy window, 100 k counts. Unexpectedly, apart from the established palpable carcinomas, additional small (millimeter size) tumors were discovered by this imaging technique in the same animals. This finding promoted a longitudinal study to investigate the early detection of neoplastic growth using ^99mTc-Mito10-MAG3.
Six 48-day-old female rats were injected with 65 mg/kg DMBA. At each week after DMBA induction, the rats were imaged using the following protocol. Each rat was anesthetized with 1.6% isoflurane in room air supplemented with oxygen. The rat was immobilized in a prone position on the surface of the gamma camera. ^99mTc-Mito10-MAG3 (10 μg, 1 mCi) was injected via the tail vein using a constant rate infusion pump for a total injection volume of 150 μl over a period of 35 min. Dynamic images were continuously acquired at one frame per min for 90 min using the imaging parameters set forth hereinabove. The weekly imaging regiment was continued for all six rats until palpable tumors became detectable, which typically takes place between seven to nine weeks after the administration of DMBA. Due to the relatively short physical half-life of ^99mTc (6 hr), no residual signal, therefore, no cross-contamination is detectable from the previous injection the week before.
^99mTc-MIBI of clinical formulation was purchased from Bristol Myers Squibb. […] At this time, the radioactivity from the ^99mTc-Mito10-MAG3 injection already had cleared to background from the animals due to physical decay and excretion. […]
Imaging data analysis was carried out using an inbuilt software, by carefully drawing a region of interest (ROI) on the tumor site to determine the radioactivity counts in the ROI. […] Radioactivity counts were determined in each ROI. Tumor-to-normal and tumor-to-muscle ratios were calculated as the count ratio between the two ROIs.
The rats were sacrificed by CO2 asphyxiation and the number and location of the mammary tumors were recorded at necropsy. The tumors were dissected, with the diameter and weight measured and documented. […]

CC(=O)[S+]1CC(=O)[N]2CC(=O)[N]3CC(=O)[N](CC(=O)NCCCCCCCCCC[P+](c4ccccc4)(c4ccccc4)c4ccccc4)[99Tc]321=[O].[Br-] (centres unmarked) [^99mTc-Mito10-MAG3]
radioactive metabolites in urine [1]: detected in urine samples; also recorded: radioactive metabolites are present | myocardial uptake level, fold lower than 99mTc-MIBI ([2]; 3 min after injection): 10 fold | myocardial uptake level, fold lower than 99mTc-MIBI ([2]; 10 min after injection): 40 fold | myocardial uptake level, fold lower than 99mTc-MIBI ([2]; 30 min after injection): 120 fold | tumor-to-non-tumor ratio compared with 99mTc-MIBI ([3]; DMBA-induced breast carcinoma in rats): similar | tumor-to-normal ratio ([3]; ROI count ratio tumor vs contralateral normal mammary gland, longitudinal experiment, at the time of detection): 2.39±0.77 | tumor-to-muscle ratio ([3]; ROI count ratio tumor vs thigh muscle, longitudinal experiment, at the time of detection): 6.61±1.74 | detection of tumors as focal radioactivity uptake relative to palpation ([3]; longitudinal experiment, four tumors in mammary glands a and b, all four detected): at least one week earlier than by palpation
